Results as given in PubChem BioAssay AID588489 (Sanford-Burnham Center for Chemical Genomics, 2011).
Only a part is listed here, and it is no random draw. The source made the active and inactive calls. Rule as the data show it: active = inhibition above about 35% (passing the limit was not always enough); inactive = the rest.

Chains of the proteins cited; added tags and fusions are not shown.
UniProt P11940, whole entry, looked up: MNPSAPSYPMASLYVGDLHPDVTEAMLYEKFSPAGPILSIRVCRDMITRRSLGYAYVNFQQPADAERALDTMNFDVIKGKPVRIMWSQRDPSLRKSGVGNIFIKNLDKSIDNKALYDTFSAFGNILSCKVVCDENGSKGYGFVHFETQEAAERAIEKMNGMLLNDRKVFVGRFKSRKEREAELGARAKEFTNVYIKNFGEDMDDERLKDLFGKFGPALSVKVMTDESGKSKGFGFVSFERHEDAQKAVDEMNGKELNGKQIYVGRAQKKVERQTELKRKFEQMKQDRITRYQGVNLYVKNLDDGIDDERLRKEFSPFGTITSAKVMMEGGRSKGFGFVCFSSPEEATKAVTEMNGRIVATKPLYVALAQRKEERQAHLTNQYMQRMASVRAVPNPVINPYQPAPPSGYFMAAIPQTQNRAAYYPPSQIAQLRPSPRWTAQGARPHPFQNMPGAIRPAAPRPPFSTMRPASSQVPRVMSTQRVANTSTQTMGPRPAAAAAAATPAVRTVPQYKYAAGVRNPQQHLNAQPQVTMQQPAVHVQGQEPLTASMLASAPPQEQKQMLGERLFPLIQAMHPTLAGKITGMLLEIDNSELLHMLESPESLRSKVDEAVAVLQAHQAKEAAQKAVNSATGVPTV

Target: Polyadenylate-binding protein 1 (Homo sapiens) (UniProt P11940)
Experiment: PAM2 peptide displacement from PABP1 MLLE – biochemical, fluorescence polarization, FITC-PAM2, GST-MLLE, primary screen (AID 588489);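 also: plate controls were DMSO wells with GST-MLLE for no effect and wells lacking GST-MLLE protein for full effect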
Conditions: at 20 µM, hits give high values

| Structure (SMILES) | inhibition |
| --- | --- |
| COc1ccc(C2=NCC(CBr)S2)cc1 (configuration not stated) | inactive: 31.1% |
| Cc1ccc(NP(=O)(Oc2ccccc2)Oc2ccccc2)nc1 | inactive: 22% |
| CCc1nc2c(n1)c1c(non1O)c1c2no[n+]1[O-] | inactive: -7.97% |
| O=[N+]([O-])c1cc([N+](=O)[O-])c(CCNc2ccccc2)c([N+](=O)[O-])c1 | inactive: -7.48% |
| O=[N+]([O-])c1cccc2n[nH]nc12 | inactive: 4.89% |
| CC(=O)N1C2C3N(C(C)=O)C1C1N(C(C)=O)C(C(N1C(C)=O)N3C(C)=O)N2C(C)=O | inactive: -3.78% |
| CCN(/C(=N/P(=O)(N1CCOCC1)N1CCOCC1)N1CCOCC1)c1ccc(OC)cc1 | inactive: -6% |
| Nc1ccc([As](=O)(O)c2ccc(N)cc2)cc1 | inactive: 14.9% |
| C[N+]1=C2C=CC=CC=C2SC12C([N+](=O)[O-])=CC([N+](=O)[O-])=C[C-]2[N+](=O)[O-] (configuration not stated) | inactive: 32.9% |
| c1cc(-c2nn[nH]n2)ccc1-c1nn[nH]n1 | inactive: 0.49% |
| CC1CCN(C(=O)Oc2c(Cl)cc(Cl)c3cccnc23)CC1 | inactive: 0.56% |
| CC(C)=N/N=C(\N)N[N+](=O)[O-] | inactive: -3.36% |
| CC(C)c1nc(Nc2ccccc2)n(P(=O)(N(C)C)N(C)C)n1 | inactive: -1.11% |
| CN(C)C(=O)OCCc1n(C)cc[n+]1C | inactive: 7.36% |
| O=P1(N(CCCl)CCCl)OCCCS1 (configuration not stated) | inactive: 6.09% |
| O=C(Nc1cc([As](=O)(O)O)ccc1O)c1ccccc1 | inactive: 9.31% |
| O=[N+]([O-])c1ncn(CCn2ncnc2[N+](=O)[O-])n1 | inactive: 3.24% |
| CC(C)(C)C(=O)NC(Sc1ccncn1)C(Cl)(Cl)Cl (configuration not stated) | inactive: 30.9% |
| O=C(O)CNc1ccc([As](=O)(O)O)cc1 | inactive: -5.93% |
| O=[N+]([O-])c1cccc(NC2=NCC(CBr)S2)c1 (configuration not stated) | inactive: 16.9% |
| COC(=O)C1(C)COP(=O)(Nc2ccccc2)OC1 (configuration not stated) | inactive: 5.63% |
| CN(C)P(=O)(N(C)C)n1c(Nc2ccccc2)nnc1-c1ccccc1 | inactive: -15.5% |
| O=P(Nc1nc2ccc(Cl)cc2s1)(c1ccccc1)c1ccccc1 | inactive: 6.15% |
| O=C(O)c1ccccc1[As](=O)(O)O | inactive: 5.72% |
| CC(=O)Nc1ccc([As](=O)(O)O)cc1 | inactive: 1.45% |
| CCCC1OP(N)(=O)OCC1CC (configuration not stated) | inactive: 0.42% |

| Structure (SMILES) | inhibition |
| --- | --- |
| CCOP(=O)(Nc1ccccc1)OCC | inactive: -4.25% |
| Cc1cc(SC(NC(=O)c2ccc(F)cc2)C(Cl)(Cl)Cl)ncn1 (configuration not stated) | inactive: 19.4% |
| Cc1ccc(NP(=O)(Oc2ccccc2F)Oc2ccccc2F)nc1 | inactive: 16.8% |
| CN(C(=O)Cc1ccc(Cl)c(Cl)c1)[C@H]1CCCC[C@@H]1N1CCCC1 | inactive: 5.2% |
| Nc1cccc2ccc([As](=O)(O)O)cc12 | inactive: 13.2% |
| CCN(N=Nc1nonc1N)c1nonc1N | inactive: 5.59% |
| CN(C(=O)Cc1ccc(Cl)c(Cl)c1)[C@H]1CCCC[C@H]1N1CCCC1 | inactive: -12.7% |
| Cc1ccc(N/C(=N/P(=O)(N2CCOCC2)N2CCOCC2)N2CCOCC2)cc1 | inactive: 2.27% |
| NC(=O)c1cc([N+](=O)[O-])cc([N+](=O)[O-])c1N | inactive: -3.67% |
| Clc1ccc(Cl)c(NC2=NCC(CBr)S2)c1 (configuration not stated) | inactive: 8.99% |
| CN1CCCC(OC(=O)C(c2ccccc2)c2ccccc2)C1 (configuration not stated) | inactive: -9.77% |
| COc1ccccc1OP(=O)(Nc1ccc(C)cn1)Oc1ccccc1OC | inactive: -4.52% |
| Cc1ccc(OP(=O)(Nc2nccs2)Oc2ccc(C)cc2)cc1 | inactive: -5.04% |
| Oc1ccccc1CNc1ccccn1 | inactive: -3.38% |
| O=C(NC(Sc1ccncn1)C(Cl)(Cl)Cl)c1ccccc1 (configuration not stated) | inactive: 37% |
| CC(C)CC(=O)NC(Sc1ccc(Cl)cc1)C(Cl)(Cl)Cl (configuration not stated) | inactive: -3.65% |
| Nc1cc(N)c2nonc2c1[N+](=O)[O-] | inactive: 15.8% |
| O=[N+]([O-])C1C(O)C(O)C([N+](=O)[O-])C(O)C1O (configuration not stated) | inactive: 8.91% |
| O=P1(Nc2nc3ccc(Cl)cc3s2)COc2ccccc2O1 (configuration not stated) | inactive: -8.28% |
| CCOc1ccc(C2=NCC(CBr)S2)cc1 (configuration not stated) | inactive: 0.04% |
| CC(C)(C)C(=O)NC(Sc1ccccc1)C(Cl)(Cl)Cl (configuration not stated) | inactive: 17.5% |
| CCc1cc(O)c([N+](=O)[O-])c(C)c1[N+](=O)[O-] | inactive: -0.89% |
| Cc1ccccc1CN(C)C(=O)COC(=O)C(O)(c1ccccc1)c1ccccc1 | inactive: 9.1% |
| C[C@@H]1C=CCP(=O)(Oc2ccccc2)O1 (some centres not stated) | inactive: 2.86% |
| C[C@H]1OP(=O)(Oc2ccccc2)C[C@@H]2O[C@@H]21 (some centres not stated) | inactive: -3.94% |
| N#C/C(=C\c1ccc(N(CCBr)CCBr)cc1)C(N)=O | inactive: -25.2% |

| Structure (SMILES) | inhibition |
| --- | --- |
| CC(=O)c1ccc(N2CC2c2ccncc2)cc1 (configuration not stated) | inactive: -3.08% |
| COC(=O)C1(C)COP(=O)(NCc2ccccc2)OC1 (configuration not stated) | inactive: 11.3% |
| CC(=O)Nc1ccc([As](=O)(O)O)c(O)c1 | inactive: 8.31% |
| CC(=O)Nc1ccc(Oc2c([N+](=O)[O-])cc([N+](=O)[O-])cc2[N+](=O)[O-])cc1 | inactive: -2.91% |
| c1ccc(-c2nn[nH]n2)c(-c2nn[nH]n2)c1 | inactive: -4.53% |
| Cc1ccc(NP(=O)(Oc2cccc(C)c2)Oc2cccc(C)c2)nc1 | inactive: 6.72% |
| CCNC(=S)/N=C(\N)N[N+](=O)[O-] | inactive: 24.1% |
| O=C(NC1CCS(=O)(=O)C1)NP(=S)(Oc1ccccc1)Oc1ccccc1 (configuration not stated) | inactive: -2.2% |
| O=P1(N(CCCl)CCCl)OCCC2CCCCN21 (configuration not stated) | inactive: -4.17% |
| O=C(OC1CN2CCC1CC2)c1ccccc1 (configuration not stated) | inactive: -1.99% |
| CCC(=O)N1C2C3N(C(=O)CC)C1C1N(C(=O)CC)C(C(N1C(=O)CC)N3C(=O)CC)N2C(=O)CC | inactive: -18.8% |
| COC(=O)c1cc2c(s1)N=C(c1ccccc1)N(C)P2(=O)N1CCOCC1 (configuration not stated) | inactive: 1.54% |
| CC(=O)NC(SC(=S)N(CC(C)C)CC(C)C)C(Cl)(Cl)Cl (configuration not stated) | inactive: 9.45% |
| Cc1ccc(OP(=O)(Nc2ccccn2)Oc2ccc(C)cc2)cc1 | inactive: 1.67% |
| Cc1ccccc1OP(=O)(Nc1ccccn1)Oc1ccccc1C | inactive: 2.89% |
| CC(NC(=O)COC(=O)C(O)(c1ccccc1)c1ccccc1)c1ccccc1 (configuration not stated) | inactive: 7.07% |
| CN(C)C(=O)Oc1noc2ccccc12 | inactive: -14.4% |
| O=c1c2cc([N+](=O)[O-])ccc2[nH]c2c([N+](=O)[O-])cc([N+](=O)[O-])cc12 | inactive: -80.3% |
| O=P(Nc1ccccn1)(c1ccc(Br)cc1)c1ccc(Br)cc1 | inactive: 10.5% |
| CN(C)C1(CNC(=O)c2ccc(Cl)c(S(N)(=O)=O)c2)CCCCC1 | inactive: 10% |
| Nc1ccc(CCCCOc2ccccc2)cc1 | inactive: 9.88% |
| COc1ccc(N)c([N+](=O)[O-])c1[N+](=O)[O-] | inactive: -0.03% |
| O=P(Nc1nc2ccccc2s1)(c1ccccc1)c1ccccc1 | inactive: -4.26% |
| C[C@H]1OP(=O)(Oc2ccccc2)[C@H](O)[C@H](O)[C@H]1N=[N+]=[N-] (some centres not stated) | inactive: -1.69% |
| O=[As](O)(c1ccccc1)c1ccc(O)cc1 | inactive: 2.87% |
| O=[N+]([O-])c1ccc(O)c(/C=N/Nc2ccc([N+](=O)[O-])cc2[N+](=O)[O-])c1 | inactive: 2.6% |

| Structure (SMILES) | inhibition |
| --- | --- |
| CC(=O)NC(SC(=S)N(C)C)C(Cl)(Cl)Cl (configuration not stated) | active: 44.5% |
| O=[N+]([O-])c1ncn(CCn2cnc([N+](=O)[O-])n2)n1 | inactive: 10.1% |
| O=C(OC1CN2CCC1CC2)c1cccc(Cl)c1 (configuration not stated) | inactive: 8.21% |
| Nc1ccc([As](=O)(O)c2ccc([N+](=O)[O-])cc2)cc1 | inactive: -11.6% |
| C(Cc1nn[nH]n1)Cc1nn[nH]n1 | inactive: 5.57% |
| CC(C)C(=O)NC(Sc1ccccc1)C(Cl)(Cl)Cl (configuration not stated) | inactive: 0.19% |
| O=P(Nc1nccs1)(c1ccccc1)c1ccccc1 | inactive: 3.79% |
| c1nnnn1CCn1cnnn1 | inactive: 9.23% |
| O=P1(Nc2ccccn2)COc2ccccc2OC1 | inactive: 4.63% |
| CCC1=CC2Cc3nc4ccc(Cl)cc4c(N)c3C(C1)C2 (configuration not stated) | inactive: -7.98% |
| CCOP(=O)(NC(=NC(C)c1ccccc1)NC(C)c1ccccc1)OCC (configuration not stated) | inactive: 1.73% |
| CN(CCCl)Cc1cc(Cl)c(NC2=NCCN2)c(Cl)c1 | inactive: -1.73% |
| CCOP(=O)(Nc1ccc(C)cn1)OCC | inactive: -9.24% |
| O=P1(N(CCCl)CCCl)NCCC(C(F)(F)F)O1 (configuration not stated) | inactive: -3.71% |
| Clc1n[nH]nc1-c1nn[nH][15n]1 | inactive: 5.8% |
| CC(C)(C)C(=O)NC(Sc1ncccn1)C(Cl)(Cl)Cl (configuration not stated) | inactive: 40% |
| COc1ccccc1CNC(=O)COC(=O)C(O)(c1ccccc1)c1ccccc1 | inactive: -1.11% |
| CC(C)/C=N\N=C(\N)N[N+](=O)[O-] | inactive: 12.3% |
| CN(C(=O)Cc1ccc(Cl)c(Cl)c1)[C@@H]1CCCC[C@H]1N1CCCC1 | inactive: -1.78% |
| CC1(CBr)Cn2c(nc3ccccc3c2=O)S1 (configuration not stated) | inactive: 20.3% |
| Cc1nn(-c2ccccc2)c2c1P(=O)(N1CCOCC1)N(C)C(c1ccccc1)=N2 (configuration not stated) | inactive: 1.96% |
| CC1CCC(C(C)C)C(OP(=O)(Nc2ccccn2)c2ccccc2)C1 (configuration not stated) | inactive: 1.48% |
| Cc1ccc(C(=O)OC2CN3CCC2CC3)cc1 (configuration not stated) | inactive: -6.33% |
| CN(C)C1(CNC(=O)c2ccc(S(C)(=O)=O)cc2)CCCCC1 | inactive: 0.35% |
